Literature values in US20240342285A1, “TREATMENT OF CANCER PATIENTS WITH TUMOR INFILTRATING LYMPHOCYTE THERAPIES IN COMBINATION WITH KRAS INHIBITORS” (Iovance Biotherapeutics, Inc., priority 2021, published 2024).

Details: 1 mg vial, lot 10200121 (Cellgenix), per COA

For “rhIL-2: purified, lyophilized recombinant human interleukin-2”, the specific activity is listed as 25×10^6 IU/mg.
